# Values quoted from earlier work as cited in patent US20210069110A1, “NON-AQUEOUS COMPOSITION HAVING DRUG CARRIED THEREIN, AND METHOD FOR PRODUCING SAME” (Techno Guard Co. Ltd., priority 2017, published 2021).
# Conditions: General Notice of Japanese Pharmacopoeia
substance,measurement,value
Dexamethasone palmitate,Water solubility of drug (Expression in Japanese Pharmacopoeia),Practically insoluble
